This is an account of results in patent publication US20020161528A1, “Tool for lipophilicity determination in drug discovery basic and neutral compounds” (Pfizer Inc., priority 2001, published 2002).

The nature of series [1]: physchem. Conditions: pH 7.4.
For series [2] the following is noted: Table 1; average of literature references only; pH 7.4; cited from earlier work.

Molecules are shown by their SMILES.

Regarding `CN(C)CCC(c1ccc(Cl)cc1)c1ccccn1` (centres unmarked) [Chlorpheniramine], the chromatographic logD (usually a lipophilicity value derived from retention on a column) in series [1] was found to be 1.56.
On to `c1ccc2ccccc2c1` [Naphthalene], for which the logDoct in series [2] is 3.37.
